System: rat liver microsomes (RLM)
Settings: flumatinib metabolism in RLM

CC(=O)N1CCN(c2ccc(OCC3COC(Cn4ccnc4)(c4ccc(Cl)cc4Cl)O3)cc2)CC1 (stereo not shown) [ketoconazole]
α: 0.79

From PMC10192561 (Frontiers in Pharmacology, 2023)
